# In patent publication US20110172126A1, “LIBRARIES OF PEPTIDE CONJUGATES AND METHODS FOR MAKING THEM” (XENOME LTD, priority 2008, published 2011):
# Sequences of proteins named here, by UniProt entry; tags and fusion partners are left off.
# UniProt P23975, whole entry: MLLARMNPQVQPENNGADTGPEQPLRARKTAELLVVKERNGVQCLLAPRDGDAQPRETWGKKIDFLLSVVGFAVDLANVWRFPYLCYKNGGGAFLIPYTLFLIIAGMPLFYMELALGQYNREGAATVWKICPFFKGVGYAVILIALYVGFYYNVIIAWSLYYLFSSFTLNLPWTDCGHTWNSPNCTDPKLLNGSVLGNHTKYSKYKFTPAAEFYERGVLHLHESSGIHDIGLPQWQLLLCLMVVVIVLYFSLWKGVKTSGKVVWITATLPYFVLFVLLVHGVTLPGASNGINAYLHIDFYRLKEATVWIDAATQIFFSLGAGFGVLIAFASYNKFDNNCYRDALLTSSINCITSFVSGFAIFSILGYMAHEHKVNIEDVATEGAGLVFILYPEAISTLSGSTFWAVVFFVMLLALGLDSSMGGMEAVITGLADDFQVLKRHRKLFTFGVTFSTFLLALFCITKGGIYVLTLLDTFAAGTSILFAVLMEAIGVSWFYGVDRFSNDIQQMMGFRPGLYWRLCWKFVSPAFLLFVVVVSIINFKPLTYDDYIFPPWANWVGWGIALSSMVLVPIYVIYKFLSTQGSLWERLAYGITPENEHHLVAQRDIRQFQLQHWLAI
# Biological target: T1, human norepinephrine transporter (hNET) (Homo sapiens, UniProt P23975)
# T1 construct: purchased Perkin Elmer Life Sciences RBHNETM400UA
# Experiment: biochemical
# Format: binding
row,SMILES,IC50
1,CC(C)C[C@@H]1NC(=O)[C@@H]2C[C@@H](CN2C(=O)CCCN)NC(=O)[C@H](Cc2ccc(O)cc2)NC(=O)[C@@H](N)CSSC[C@@H](C(N)=O)NC1=O [compound 2],23 µM
2,CC(C)C[C@@H]1NC(=O)[C@@H]2C[C@H](NC(=O)CCCN)CN2C(=O)[C@H](Cc2ccc(O)cc2)NC(=O)[C@@H](N)CSSC[C@@H](C(N)=O)NC1=O [compound 3],21 µM
